Experimental data reported in PMC8065111, “Inhibition of polar actin assembly by astral microtubules is required for cytokinesis” (Nature Communications, 2021).

Sequences of proteins named here, by UniProt entry; tags and fusion partners are left off. Residues count along the entry.
UniProt O60610, 580-1272: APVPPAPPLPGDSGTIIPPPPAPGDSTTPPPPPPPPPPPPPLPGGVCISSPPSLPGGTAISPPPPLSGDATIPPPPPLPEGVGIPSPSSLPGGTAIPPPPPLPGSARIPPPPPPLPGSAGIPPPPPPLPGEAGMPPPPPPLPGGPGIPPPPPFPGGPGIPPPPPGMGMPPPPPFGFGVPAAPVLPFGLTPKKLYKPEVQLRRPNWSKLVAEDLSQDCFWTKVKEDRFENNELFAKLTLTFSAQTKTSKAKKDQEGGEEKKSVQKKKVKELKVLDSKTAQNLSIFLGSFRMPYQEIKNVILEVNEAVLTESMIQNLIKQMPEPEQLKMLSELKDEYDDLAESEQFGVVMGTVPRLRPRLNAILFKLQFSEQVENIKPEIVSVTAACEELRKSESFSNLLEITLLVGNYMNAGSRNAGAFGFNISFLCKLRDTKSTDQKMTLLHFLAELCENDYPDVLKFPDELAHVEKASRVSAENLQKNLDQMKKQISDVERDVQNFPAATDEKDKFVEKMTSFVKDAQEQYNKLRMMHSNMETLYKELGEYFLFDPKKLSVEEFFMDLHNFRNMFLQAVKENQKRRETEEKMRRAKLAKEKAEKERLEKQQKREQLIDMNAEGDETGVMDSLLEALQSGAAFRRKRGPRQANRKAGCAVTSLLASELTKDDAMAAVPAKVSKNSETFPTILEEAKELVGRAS

Target: T1, MBP-DIAPH1-CT (human, UniProt O60610 580-1272)
T1 construct: human DIAPH1, C-terminal actin nucleating half, residues 580-1272; cloned into pKM596 to give an MBP fusion; also called recombinant C-terminal half of DIAPH1; source: E. coli ER2523, purified (amylose resin)
Assay: pull-down; 0.05 nmol His6-DIAPH1-NT immobilised on nickel-Sepharose beads, with or without equimolar GST-IQGAP1 or GST-RhoA (2 h), then equimolar MBP-DIAPH1-CT (2 h); 25 mM HEPES pH 7.5, 120 mM NaCl, 1 mM EGTA, 0.3% Triton X-100, 1 mM beta-mercaptoethanol; 4 °C; anti-MBP blot
Conditions: both partners purified

binding result: binds
B1: His6-DIAPH1-NT (domain or fragment, human, UniProt O60610 1-575, looked up)
chain: MEPPGGSLGPGRGTRDKKKGRSPDELPSAGGDGGKSKKFTLKRLMADELERFTSMRIKKEKEKPNSAHRNSSASYGDDPTAQSLQDVSDEQVLVLFEQMLLDMNLNEEKQQPLREKDIIIKREMVSQYLYTSKAGMSQKESSKSAMMYIQELRSGLRDMPLLSCLESLRVSLNNNPVSWVQTFGAEGLASLLDILKRLHDEKEETAGSYDSRNKHEIIRCLKAFMNNKFGIKTMLETEEGILLLVRAMDPAVPNMMIDAAKLLSALCILPQPEDMNERVLEAMTERAEMDEVERFQPLLDGLKSGTTIALKVGCLQLINALITPAEELDFRVHIRSELMRLGLHQVLQDLREIENEDMRVQLNVFDEQGEEDSYDLKGRLDDIRMEMDDFNEVFQILLNTVKDSKAEPHFLSILQHLLLVRNDYEARPQYYKLIEECISQIVLHKNGADPDFKCRHLQIEIEGLIDQMIDKTKVEKSEAKAAELEKKLDSELTARHELQVEMKKMESDFEQKLQDLQGEKDALHSEKQQIATEKQDLEAEVSQLTGEVAKLTKELEDAKKEMASLSAAAITVPPS
notes: human DIAPH1, N-terminal fragment, residues 1-575 of the 1272-residue protein; plasmid pET30a-DIAPH1-NT(1-575aa); Plasmid was a gift from J. Copeland; also called N-terminal fragment of DIAPH1; DIAPH1 N-terminal regulatory domains; source: E. coli BL21, purified (nickel-Sepharose)
